Drawing on ChEMBL document CHEMBL5316381, “Discovery of [1,2,3]Triazolo[4,5-c]quinoline Derivatives as a New Class of Ataxia-Telangiectasia Mutated Kinase Inhibitors” (ACS Med Chem Lett, 2023), this text covers fold change (FC) for 1 compound.

Protein sequences, listed by entry. Tags and fused reporters are not part of them. Lines headed by an entry give the natural chain unless they say otherwise; changes in a name come on top.
UniProt O96017, whole entry: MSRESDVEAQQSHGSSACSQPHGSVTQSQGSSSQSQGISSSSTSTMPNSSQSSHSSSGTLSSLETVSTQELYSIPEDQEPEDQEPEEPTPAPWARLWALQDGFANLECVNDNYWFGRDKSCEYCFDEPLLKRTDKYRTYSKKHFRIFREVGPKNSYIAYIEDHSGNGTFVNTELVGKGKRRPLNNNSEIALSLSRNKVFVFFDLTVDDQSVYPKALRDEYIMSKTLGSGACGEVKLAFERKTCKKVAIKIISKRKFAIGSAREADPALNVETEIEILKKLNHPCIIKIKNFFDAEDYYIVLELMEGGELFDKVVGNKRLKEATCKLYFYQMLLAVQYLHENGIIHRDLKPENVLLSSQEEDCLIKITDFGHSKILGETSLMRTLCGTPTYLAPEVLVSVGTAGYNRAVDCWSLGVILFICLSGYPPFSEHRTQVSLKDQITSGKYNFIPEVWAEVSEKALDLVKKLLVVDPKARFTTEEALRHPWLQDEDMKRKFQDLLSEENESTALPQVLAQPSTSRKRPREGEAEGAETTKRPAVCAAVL
UniProt Q13315: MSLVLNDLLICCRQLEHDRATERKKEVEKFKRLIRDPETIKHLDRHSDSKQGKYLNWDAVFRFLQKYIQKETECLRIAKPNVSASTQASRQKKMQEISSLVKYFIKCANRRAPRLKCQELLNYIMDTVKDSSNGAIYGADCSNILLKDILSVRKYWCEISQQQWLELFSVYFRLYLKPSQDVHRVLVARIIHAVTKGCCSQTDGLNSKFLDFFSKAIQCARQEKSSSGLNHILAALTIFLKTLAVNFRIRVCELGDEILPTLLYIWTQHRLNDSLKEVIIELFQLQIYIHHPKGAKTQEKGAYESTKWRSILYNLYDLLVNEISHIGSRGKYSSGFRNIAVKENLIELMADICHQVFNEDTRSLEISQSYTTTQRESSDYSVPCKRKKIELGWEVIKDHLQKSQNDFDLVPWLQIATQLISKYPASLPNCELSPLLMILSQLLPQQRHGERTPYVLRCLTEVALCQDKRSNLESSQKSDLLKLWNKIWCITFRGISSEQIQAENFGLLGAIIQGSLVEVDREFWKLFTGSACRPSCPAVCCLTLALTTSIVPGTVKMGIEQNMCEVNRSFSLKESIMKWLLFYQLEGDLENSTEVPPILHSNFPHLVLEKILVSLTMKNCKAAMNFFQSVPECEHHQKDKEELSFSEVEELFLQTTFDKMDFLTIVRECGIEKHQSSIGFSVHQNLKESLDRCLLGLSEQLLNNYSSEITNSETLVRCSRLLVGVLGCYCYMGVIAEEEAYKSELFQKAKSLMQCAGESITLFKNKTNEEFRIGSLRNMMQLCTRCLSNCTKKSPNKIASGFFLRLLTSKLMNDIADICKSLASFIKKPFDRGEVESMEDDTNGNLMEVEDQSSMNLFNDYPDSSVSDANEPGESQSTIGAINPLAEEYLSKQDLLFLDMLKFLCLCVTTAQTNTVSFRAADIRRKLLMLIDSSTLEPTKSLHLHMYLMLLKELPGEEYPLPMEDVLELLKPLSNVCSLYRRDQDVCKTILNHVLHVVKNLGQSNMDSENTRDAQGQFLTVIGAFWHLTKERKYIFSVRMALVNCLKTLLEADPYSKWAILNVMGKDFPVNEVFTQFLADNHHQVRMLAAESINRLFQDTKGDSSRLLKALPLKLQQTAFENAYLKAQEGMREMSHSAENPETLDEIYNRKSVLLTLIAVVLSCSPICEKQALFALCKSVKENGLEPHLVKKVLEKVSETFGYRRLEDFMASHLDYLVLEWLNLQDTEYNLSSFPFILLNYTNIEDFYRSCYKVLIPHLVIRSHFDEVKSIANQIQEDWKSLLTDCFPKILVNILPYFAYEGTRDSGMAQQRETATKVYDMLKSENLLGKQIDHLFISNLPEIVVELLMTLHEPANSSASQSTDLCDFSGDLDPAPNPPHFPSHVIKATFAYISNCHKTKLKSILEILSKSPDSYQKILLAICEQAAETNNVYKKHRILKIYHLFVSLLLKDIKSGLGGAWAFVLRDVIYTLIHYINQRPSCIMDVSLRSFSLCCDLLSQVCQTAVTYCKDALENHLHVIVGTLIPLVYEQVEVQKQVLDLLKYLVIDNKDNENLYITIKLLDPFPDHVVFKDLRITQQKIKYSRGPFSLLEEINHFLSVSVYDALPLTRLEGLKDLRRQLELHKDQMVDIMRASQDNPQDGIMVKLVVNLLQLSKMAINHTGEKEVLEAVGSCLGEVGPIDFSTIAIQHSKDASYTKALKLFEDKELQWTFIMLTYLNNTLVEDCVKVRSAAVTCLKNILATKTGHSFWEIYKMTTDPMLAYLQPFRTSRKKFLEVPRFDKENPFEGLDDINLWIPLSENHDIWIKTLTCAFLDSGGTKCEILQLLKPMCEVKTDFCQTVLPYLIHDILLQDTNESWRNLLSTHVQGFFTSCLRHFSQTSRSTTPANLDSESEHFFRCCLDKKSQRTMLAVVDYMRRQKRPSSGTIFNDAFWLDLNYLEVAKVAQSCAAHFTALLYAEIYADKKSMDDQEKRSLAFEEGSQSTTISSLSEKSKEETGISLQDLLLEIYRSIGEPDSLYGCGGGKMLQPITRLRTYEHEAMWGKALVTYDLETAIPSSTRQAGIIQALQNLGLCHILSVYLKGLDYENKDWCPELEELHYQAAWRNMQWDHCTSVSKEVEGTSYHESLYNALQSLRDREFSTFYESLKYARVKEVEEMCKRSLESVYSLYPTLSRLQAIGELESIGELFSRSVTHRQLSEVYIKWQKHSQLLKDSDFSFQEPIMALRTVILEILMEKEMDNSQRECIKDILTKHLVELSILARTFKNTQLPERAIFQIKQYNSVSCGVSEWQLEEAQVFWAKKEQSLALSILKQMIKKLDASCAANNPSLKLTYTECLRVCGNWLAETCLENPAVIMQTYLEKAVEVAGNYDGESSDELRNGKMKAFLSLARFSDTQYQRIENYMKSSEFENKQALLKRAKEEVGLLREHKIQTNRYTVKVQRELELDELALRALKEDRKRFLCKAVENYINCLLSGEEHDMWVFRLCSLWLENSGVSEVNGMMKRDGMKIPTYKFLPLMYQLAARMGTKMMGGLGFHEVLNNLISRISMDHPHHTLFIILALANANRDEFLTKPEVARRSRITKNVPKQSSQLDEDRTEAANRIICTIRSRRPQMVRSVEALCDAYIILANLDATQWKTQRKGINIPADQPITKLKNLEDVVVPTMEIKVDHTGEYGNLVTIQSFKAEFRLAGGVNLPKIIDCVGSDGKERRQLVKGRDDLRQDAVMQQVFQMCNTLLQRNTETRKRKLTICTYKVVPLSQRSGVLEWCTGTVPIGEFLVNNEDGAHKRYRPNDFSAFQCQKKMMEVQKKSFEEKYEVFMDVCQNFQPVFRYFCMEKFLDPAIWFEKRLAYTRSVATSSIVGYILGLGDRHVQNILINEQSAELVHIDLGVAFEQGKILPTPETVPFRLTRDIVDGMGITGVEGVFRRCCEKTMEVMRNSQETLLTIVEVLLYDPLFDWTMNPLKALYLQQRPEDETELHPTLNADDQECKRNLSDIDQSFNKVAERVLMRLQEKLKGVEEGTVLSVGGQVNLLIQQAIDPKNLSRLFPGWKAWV

What all share (assay type): cell-based
Test [1] addresses Serine/threonine-protein kinase Chk2 (Homo sapiens) (UniProt O96017). Description: Inhibition of CPT-11 induced Chk2 phosphorylation in human SW620 cells assessed as fold change in phosphorylated chk2 protein level at 30 nM by SDS-PAGE based Western blot analysis relative to control.
Test [2] shares this target. As to the kind of experiment: Inhibition of CPT-11 induced Chk2 phosphorylation in human SW620 cells assessed as fold change in phosphorylated chk2 protein level at 10 nM by SDS-PAGE based Western blot analysis relative to control.
Test [3] shares this target. Description: Inhibition of CPT-11 induced Chk2 phosphorylation in human SW620 cells assessed as fold change in phosphorylated chk2 protein level at 3 nM by SDS-PAGE based Western blot analysis relative to control. (In general: A western blot detects proteins with antibodies after separation by electrophoresis.)
For test [4] the target is unchanged. As to the kind of experiment: Inhibition of CPT-11 induced Chk2 phosphorylation in human SW620 cells assessed as fold change in phosphorylated chk2 protein level at 1 nM by SDS-PAGE based Western blot analysis relative to control.
Test [5] shares this target. As to the kind of experiment: Inhibition of Chk2 phosphorylation in human SW620 cells with IR-induced DNA damage assessed as fold change in phosphorylated Chk2 protein level at 3 nM in the presence of 1.5 Gy irradiation by Western blot analysis relative to control.
Test [6] shares this target. As to the kind of experiment: Inhibition of Chk2 phosphorylation in human SW620 cells with IR-induced DNA damage assessed as fold change in phosphorylated Chk2 protein level at 9 nM in the presence of 1.5 Gy irradiation by Western blot analysis relative to control.
The target is the same in test [7]. As to the kind of experiment: Inhibition of Chk2 phosphorylation in human SW620 cells with IR-induced DNA damage assessed as fold change in phosphorylated Chk2 protein level at 27 nM in the presence of 1.5 Gy irradiation by Western blot analysis relative to control.
The target is the same in test [8]. Description: Inhibition of Chk2 phosphorylation in human SW620 cells with IR-induced DNA damage assessed as fold change in phosphorylated Chk2 protein level at 83 nM in the presence of 1.5 Gy irradiation by Western blot analysis relative to control.
For test [9] the target is unchanged. Description: Inhibition of Chk2 phosphorylation in human SW620 cells with IR-induced DNA damage assessed as fold change in phosphorylated Chk2 protein level at 250 nM in the presence of 1.5 Gy irradiation by Western blot analysis relative to control.
The target of test [10] is T1, Serine-protein kinase ATM (Homo sapiens, UniProt Q13315). Description: Inhibition of ATM phosphorylation in human SW620 cells with IR-induced DNA damage assessed as fold change in phosphorylated ATM protein level at 3 nM in the presence of 3 Gy irradiation by Western blot analysis relative to control.
For test [11], the target named is T1, Serine-protein kinase ATM. Description: Inhibition of ATM phosphorylation in human SW620 cells with IR-induced DNA damage assessed as fold change in phosphorylated ATM protein level at 9 nM in the presence of 3 Gy irradiation by Western blot analysis relative to control.
Test [12] deals with T1, Serine-protein kinase ATM. Description: Inhibition of ATM phosphorylation in human SW620 cells with IR-induced DNA damage assessed as fold change in phosphorylated ATM protein level at 27 nM in the presence of 3 Gy irradiation by Western blot analysis relative to control.
Test [13] concerns the target T1, Serine-protein kinase ATM. As to the kind of experiment: Inhibition of ATM phosphorylation in human SW620 cells with IR-induced DNA damage assessed as fold change in phosphorylated ATM protein level at 83 nM in the presence of 3 Gy irradiation by Western blot analysis relative to control.
Test [14] has as its target T1, Serine-protein kinase ATM. As to the kind of experiment: Inhibition of ATM phosphorylation in human SW620 cells with IR-induced DNA damage assessed as fold change in phosphorylated ATM protein level at 250 nM in the presence of 3 Gy irradiation by Western blot analysis relative to control.
The target of test [15] is Serine/threonine-protein kinase Chk2 (Homo sapiens) (UniProt O96017). Description: Inhibition of Chk2 phosphorylation in human SW620 cells with IR-induced DNA damage assessed as fold change in phosphorylated Chk2 protein level at 3 nM in the presence of 3 Gy irradiation by Western blot analysis relative to control.
Test [16] has the same target. Description: Inhibition of Chk2 phosphorylation in human SW620 cells with IR-induced DNA damage assessed as fold change in phosphorylated Chk2 protein level at 9 nM in the presence of 3 Gy irradiation by Western blot analysis relative to control.
For test [17] the target is unchanged. As to the kind of experiment: Inhibition of Chk2 phosphorylation in human SW620 cells with IR-induced DNA damage assessed as fold change in phosphorylated Chk2 protein level at 27 nM in the presence of 3 Gy irradiation by Western blot analysis relative to control.
Test [18] shares this target. Description: Inhibition of Chk2 phosphorylation in human SW620 cells with IR-induced DNA damage assessed as fold change in phosphorylated Chk2 protein level at 83 nM in the presence of 3 Gy irradiation by Western blot analysis relative to control.
For test [19] the target is unchanged. Description: Inhibition of Chk2 phosphorylation in human SW620 cells with IR-induced DNA damage assessed as fold change in phosphorylated Chk2 protein level at 250 nM in the presence of 3 Gy irradiation by Western blot analysis relative to control.

Regarding `C[C@H](c1ccccc1)n1nnc2cnc3ccc(-c4ccc(OCCCN(C)C)nc4)cc3c21`, the fold change (FC) in test [1] was determined as 0.64; in test [2], 0.84; in test [3], 1.2; in test [4] it was 2; in test [5], 1.3; in test [6] it was 1.2. Besides, the fold change (FC) in [7] amounted to 0.63; in [8], 0.59; in [9], 0.59; in [10] it was 2.9; in test [11], 2.3; in [12], 0.77. Further, the fold change (FC) in test [13] is 0.59; in [14], 0.81; in [15], 3.5; in test [16] it was 1.4; in test [17] it was 0.79; in test [18] it was 0.59. Besides, in test [19], the fold change (FC) was found to be 0.75.
